## AlphaSeq binding of Ab-14 light chain variants to a spike HR2 peptide

The measurements come from Engelhart et al. 2022 (doi:10.1038/s41597-022-01779-4) through the FLAb antibody collection.

Binding partner: SARS-CoV-2 spike HR2 peptide, sequence PDVDLGDISGINAS.

Parent: Ab-14, a human scFv built as VH, three GGGGS repeats, VL. Only the CDRs of the light chain vary.
VH: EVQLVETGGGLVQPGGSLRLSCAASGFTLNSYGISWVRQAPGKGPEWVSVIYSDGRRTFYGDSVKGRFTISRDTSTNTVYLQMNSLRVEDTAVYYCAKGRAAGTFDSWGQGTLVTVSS
VL: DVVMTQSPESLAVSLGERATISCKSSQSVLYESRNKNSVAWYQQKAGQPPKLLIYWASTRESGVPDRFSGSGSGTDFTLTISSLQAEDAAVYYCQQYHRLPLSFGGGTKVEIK

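The starting antibody came from a phage panning campaign against this peptide. AAYL50 was designed without a model: most single CDR substitutions and a random sample of double and triple ones. The scFvs were displayed on barcoded MATa yeast, the peptide on MATalpha yeast. Mating (16 h, 30 °C) was followed by selection of diploids and sequencing of their barcodes. The ratio of observed to expected reads was calibrated, replicate by replicate, on BCL2-family standards whose Kd was known from biolayer interferometry. The assay was run in three technical replicates.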

Positions count from residue 1 of the parent VL; R34P puts P in place of R.
The read-out is the apparent dissociation constant on a log10 scale (nM): the lower, the stronger.
Averages over replicates are reported, and they cover detected replicates only.
An entry "ND" has no value in the source: the pair was not observed among the diploids in that replicate. This suggests poor binding but is not conclusive.

| # | changes | log10 Kd, replicates | log10 Kd (nM), mean | signal with controls |
|---|---|---|---|---|
| 1 | R34P/Q96E/P101L | ND / ND / ND | ND | 0/9 |
| 2 | V29C/Y31M/N37I | 2.27 / 2.19 / 2.39 | 2.29 | 4/9 (3.97) |
| 3 | V29W/T59P/R99N | ND / ND / 4.60 | 4.60 | 3/9 (3.91) |
| 4 | L30C/N37M/S38W | ND / ND / ND | ND | 0/9 |
| 5 | Q27W/K36A/S58D | 3.34 / 3.56 / 3.48 | 3.46 | 1/9 (3.82) |
| 6 | S62A/Q95K/S103Q | 0.15 / 0.51 / 0.86 | 0.51 | 1/9 (3.73) |
| 7 | E32V/S62E/Q96V | ND / ND / ND | ND | 0/9 |
| 8 | K24S/Y31Q/N35T | 0.74 / 0.97 / 0.89 | 0.87 | 3/9 (5.11) |
| 9 | S33L/A40G/R60I | ND / 3.38 / ND | 3.38 | 1/9 (3.70) |
| 10 | E32N/N37F/S103Y | ND / ND / ND | ND | 0/9 |
| 11 | Y31L/A57P/S103P | ND / ND / ND | ND | 2/9 (3.29) |
| 12 | Y31F/S38H/A40E | 3.69 / ND / ND | 3.69 | 4/9 (3.78) |
| 13 | R60W/Q96D/L100H | ND / 3.26 / 4.35 | 3.81 | 3/9 (4.29) |
| 14 | R34E/T59F/Y97A | 6.01 / 3.27 / 5.26 | 4.85 | 1/9 (3.85) |
| 15 | R34Y/S62D/R99P | ND / ND / ND | ND | 2/9 (3.20) |
| 16 | L30Q/S33T/R34G | ND / ND / ND | ND | 1/9 (2.05) |
| 17 | V29F/L30N/L102T | 5.22 / ND / 6.01 | 5.62 | 5/9 (4.01) |
| 18 | R99N/L100Q/L102W | 5.55 / 3.78 / 4.98 | 4.77 | 6/9 (4.69) |
| 19 | S28Y/K36M/Q96H | 4.13 / 3.88 / 3.90 | 3.97 | 1/9 (4.04) |
| 20 | S38R/A57Q/L102R | ND / ND / ND | ND | 1/9 (2.94) |
| 21 | K24C/S38G/T59Q | 2.46 / 1.97 / 3.19 | 2.54 | 2/9 (3.13) |
| 22 | Q27N/R34A/L100C | ND / 2.30 / ND | 2.30 | 0/9 |
| 23 | Q27N/Q96A/R99K | 0.84 / 1.08 / 1.10 | 1.01 | 2/9 (5.37) |
| 24 | S28Q/N35V/E61W | 3.39 / 3.00 / 3.18 | 3.19 | 4/9 (4.31) |
| 25 | V39H/W56D/L102H | ND / ND / ND | ND | 0/9 |
| 26 | R34Y/A40V/L100R | ND / ND / ND | ND | 0/9 |
| 27 | W56A/H98R/S103R | ND / ND / 5.45 | 5.45 | 1/9 (2.41) |
| 28 | L30D/N35Q/P101G | ND / 4.91 / 5.29 | 5.10 | 1/9 (4.92) |
| 29 | Q27M/S28Y/Q96R | 3.95 / 2.55 / ND | 3.25 | 0/9 |
| 30 | L30A/R34H/A57L | ND / ND / ND | ND | 1/9 (4.55) |
| 31 | Q96D/Y97P | 5.47 / ND / ND | 5.47 | 2/9 (4.32) |
| 32 | E32I/R99A | 2.83 / 2.61 / 2.78 | 2.74 | 3/9 (3.88) |
| 33 | S25K/A57N/Q95K | ND / ND / ND | ND | 1/9 (4.10) |
| 34 | K24P/L30G | 4.08 / 4.21 / 4.12 | 4.14 | 4/9 (4.34) |
| 35 | Y31E/N35P/A40V | 2.91 / 3.48 / 3.30 | 3.23 | 1/9 (3.46) |
| 36 | S38W/S58P/R99S | ND / ND / ND | ND | 2/9 (3.74) |
| 37 | Y31A/Q95D/L102I | ND / ND / ND | ND | 0/9 |
| 38 | A40Q/Y97R/R99I | 3.78 / ND / 5.30 | 4.54 | 4/9 (4.31) |
| 39 | N35E/P101C | 0.58 / 0.93 / 0.82 | 0.78 | 0/9 |
| 40 | T59D/H98V/P101W | 1.35 / 1.53 / 1.67 | 1.52 | 0/9 |
| 41 | S28V/A40H/W56N | 2.06 / 1.92 / 1.94 | 1.97 | 2/9 (4.33) |
| 42 | A40N/S62I/Q95D | ND / ND / ND | ND | 0/9 |
| 43 | E32A/R99G | 2.50 / 2.45 / 2.37 | 2.44 | 0/9 |
| 44 | K24M/R99M/L102T | 2.59 / 2.30 / 2.36 | 2.42 | 1/9 (3.74) |
| 45 | N37R/Q95E/Y97R | 5.79 / ND / ND | 5.79 | 0/9 |
| 46 | S25G/N35W/V39H | ND / 4.50 / 4.61 | 4.56 | 5/9 (4.77) |
| 47 | V29L/R34S/K36V | ND / ND / ND | ND | 0/9 |
| 48 | Q27P/L30D/Y97N | ND / ND / ND | ND | 2/9 (3.32) |
| 49 | N37T/L102C/S103G | ND / 2.74 / 4.52 | 3.63 | 2/9 (4.28) |

6 of these entries, quoted again:

changes,"log10 Kd, replicates","log10 Kd (nM), mean",signal with controls
L30Q/S33T/R34G,ND / ND / ND,ND,1/9 (2.05)
A40N/S62I/Q95D,ND / ND / ND,ND,0/9
R34Y/A40V/L100R,ND / ND / ND,ND,0/9
S28Y/K36M/Q96H,4.13 / 3.88 / 3.90,3.97,1/9 (4.04)
Y31E/N35P/A40V,2.91 / 3.48 / 3.30,3.23,1/9 (3.46)
V39H/W56D/L102H,ND / ND / ND,ND,0/9

Three control strains display no target. For library AAYL50, 18% of the pairings with them gave a signal, with a median of 4.19 and one signal in twenty below 2.99, so weak values seen in few replicates may be background. The control count says in how many pairings with the empty strains this scFv gave a signal, with their mean in brackets.
For reference, the parent read 0.65 as the reference entry and 1.68 as a member of this library.